From paper PMC2989642 (The European journal of neuroscience, 2010)

By UniProt entry, the sequences of proteins in these tests, tags left out. Residues count along the entry.
UniProt Q8R493, 21-495: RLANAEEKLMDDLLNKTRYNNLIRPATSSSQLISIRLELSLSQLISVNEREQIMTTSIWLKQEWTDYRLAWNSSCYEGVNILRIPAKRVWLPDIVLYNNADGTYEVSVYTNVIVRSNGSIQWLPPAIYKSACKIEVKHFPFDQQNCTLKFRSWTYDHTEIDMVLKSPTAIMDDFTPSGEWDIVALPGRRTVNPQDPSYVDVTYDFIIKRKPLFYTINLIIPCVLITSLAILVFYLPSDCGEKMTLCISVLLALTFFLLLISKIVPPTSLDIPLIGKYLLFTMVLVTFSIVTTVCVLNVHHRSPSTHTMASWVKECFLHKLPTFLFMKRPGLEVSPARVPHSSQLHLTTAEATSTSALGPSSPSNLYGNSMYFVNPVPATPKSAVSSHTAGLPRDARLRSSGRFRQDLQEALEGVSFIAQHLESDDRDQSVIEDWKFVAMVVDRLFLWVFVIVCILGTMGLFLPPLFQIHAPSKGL
UniProt Q8R4G9, 26-499: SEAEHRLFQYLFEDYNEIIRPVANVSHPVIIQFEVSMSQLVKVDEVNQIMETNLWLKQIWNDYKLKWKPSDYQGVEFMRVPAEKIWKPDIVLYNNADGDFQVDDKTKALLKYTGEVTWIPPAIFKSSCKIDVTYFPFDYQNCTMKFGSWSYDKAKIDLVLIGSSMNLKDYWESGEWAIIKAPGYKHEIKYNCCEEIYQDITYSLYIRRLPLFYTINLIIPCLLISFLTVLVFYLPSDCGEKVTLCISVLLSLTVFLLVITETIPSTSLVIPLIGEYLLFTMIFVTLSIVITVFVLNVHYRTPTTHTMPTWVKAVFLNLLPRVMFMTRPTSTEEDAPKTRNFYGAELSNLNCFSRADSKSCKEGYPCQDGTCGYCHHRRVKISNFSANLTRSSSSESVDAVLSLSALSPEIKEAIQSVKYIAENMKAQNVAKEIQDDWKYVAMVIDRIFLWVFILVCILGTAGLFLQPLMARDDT

Biological target: α3β4 receptors (in the α5β2 KO) (Mus musculus, UniProt Q8R493+Q8R4G9)
Assay type: cell-based

- Hill coefficient: 1.68 ± 0.06
SMILES: CN1CCC[C@H]1c1cccnc1 [Nicotine, nicotine]
